Key:
JAK3 = JAK3 (Homo sapiens (Human), UniProt P52333); experiment: Biochemical JAK kinase assay (LanthaScreen), JAK3
Method: (§1) A panel of four LanthaScreen JAK biochemical assays (JAK1, 2, 3 and Tyk2) were carried in a common kinase reaction buffer (50 mM HEPES, pH 7.5, 0.01% Brij-35, 10 mM MgCl2, and 1 mM EGTA). Recombinant GST-tagged JAK enzymes and a GFP-tagged STAT1 peptide substrate were obtained from Life Technologies.
(§2) Serially diluted compounds were pre-incubated with each of the four JAK enzymes and the substrate in white 384-well microplates (Corning) at ambient temperature for 1 h. ATP was subsequently added to initiate the kinase reactions in 10 μL total volume, with 1% DMSO. […] The plates were allowed to incubate at ambient temperature for 1 h before being read on the EnVision reader (Perkin Elmer).
(§3) For dose-response analysis, percent inhibition data were plotted vs. compound concentrations, and IC50 values were determined from a 4-parameter robust fit model with the Prism software (GraphPad Software). Results were expressed as pIC50 (negative logarithm of IC50) and subsequently converted to pKi (negative logarithm of dissociation constant, Ki) using the Cheng-Prusoff equation.

Sequences of proteins named here, by UniProt entry; tags and fusion partners are left off. A change or cut given only in a name is not applied to a line headed by its entry.
UniProt P52333: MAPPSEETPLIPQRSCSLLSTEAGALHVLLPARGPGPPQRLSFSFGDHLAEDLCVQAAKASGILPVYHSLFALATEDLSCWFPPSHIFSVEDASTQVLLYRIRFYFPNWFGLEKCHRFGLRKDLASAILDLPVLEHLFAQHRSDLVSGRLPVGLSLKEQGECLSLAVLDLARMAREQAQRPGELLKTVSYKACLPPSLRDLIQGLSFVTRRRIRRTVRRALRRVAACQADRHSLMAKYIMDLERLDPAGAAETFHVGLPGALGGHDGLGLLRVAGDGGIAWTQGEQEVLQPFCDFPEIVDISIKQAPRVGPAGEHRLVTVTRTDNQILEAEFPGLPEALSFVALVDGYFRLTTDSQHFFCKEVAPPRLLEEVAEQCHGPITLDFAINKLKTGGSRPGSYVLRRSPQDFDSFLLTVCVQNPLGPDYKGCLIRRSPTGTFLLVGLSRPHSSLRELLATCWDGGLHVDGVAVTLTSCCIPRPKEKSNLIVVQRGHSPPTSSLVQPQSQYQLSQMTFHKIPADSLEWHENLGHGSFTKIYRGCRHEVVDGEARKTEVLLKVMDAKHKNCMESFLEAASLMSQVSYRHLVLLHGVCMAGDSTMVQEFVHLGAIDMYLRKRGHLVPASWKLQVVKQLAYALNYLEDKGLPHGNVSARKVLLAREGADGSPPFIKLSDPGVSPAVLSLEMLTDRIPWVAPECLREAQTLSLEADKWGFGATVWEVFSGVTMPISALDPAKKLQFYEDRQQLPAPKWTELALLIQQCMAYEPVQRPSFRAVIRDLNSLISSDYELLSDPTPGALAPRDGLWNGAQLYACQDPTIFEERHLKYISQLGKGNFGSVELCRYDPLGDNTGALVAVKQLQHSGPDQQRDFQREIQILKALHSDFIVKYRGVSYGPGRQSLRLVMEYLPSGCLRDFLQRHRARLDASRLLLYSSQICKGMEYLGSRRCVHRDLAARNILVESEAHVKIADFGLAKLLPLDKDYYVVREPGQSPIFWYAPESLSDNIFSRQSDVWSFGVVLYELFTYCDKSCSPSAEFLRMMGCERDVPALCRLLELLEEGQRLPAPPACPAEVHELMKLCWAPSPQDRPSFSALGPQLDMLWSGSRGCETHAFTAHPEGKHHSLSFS
UniProt P29597: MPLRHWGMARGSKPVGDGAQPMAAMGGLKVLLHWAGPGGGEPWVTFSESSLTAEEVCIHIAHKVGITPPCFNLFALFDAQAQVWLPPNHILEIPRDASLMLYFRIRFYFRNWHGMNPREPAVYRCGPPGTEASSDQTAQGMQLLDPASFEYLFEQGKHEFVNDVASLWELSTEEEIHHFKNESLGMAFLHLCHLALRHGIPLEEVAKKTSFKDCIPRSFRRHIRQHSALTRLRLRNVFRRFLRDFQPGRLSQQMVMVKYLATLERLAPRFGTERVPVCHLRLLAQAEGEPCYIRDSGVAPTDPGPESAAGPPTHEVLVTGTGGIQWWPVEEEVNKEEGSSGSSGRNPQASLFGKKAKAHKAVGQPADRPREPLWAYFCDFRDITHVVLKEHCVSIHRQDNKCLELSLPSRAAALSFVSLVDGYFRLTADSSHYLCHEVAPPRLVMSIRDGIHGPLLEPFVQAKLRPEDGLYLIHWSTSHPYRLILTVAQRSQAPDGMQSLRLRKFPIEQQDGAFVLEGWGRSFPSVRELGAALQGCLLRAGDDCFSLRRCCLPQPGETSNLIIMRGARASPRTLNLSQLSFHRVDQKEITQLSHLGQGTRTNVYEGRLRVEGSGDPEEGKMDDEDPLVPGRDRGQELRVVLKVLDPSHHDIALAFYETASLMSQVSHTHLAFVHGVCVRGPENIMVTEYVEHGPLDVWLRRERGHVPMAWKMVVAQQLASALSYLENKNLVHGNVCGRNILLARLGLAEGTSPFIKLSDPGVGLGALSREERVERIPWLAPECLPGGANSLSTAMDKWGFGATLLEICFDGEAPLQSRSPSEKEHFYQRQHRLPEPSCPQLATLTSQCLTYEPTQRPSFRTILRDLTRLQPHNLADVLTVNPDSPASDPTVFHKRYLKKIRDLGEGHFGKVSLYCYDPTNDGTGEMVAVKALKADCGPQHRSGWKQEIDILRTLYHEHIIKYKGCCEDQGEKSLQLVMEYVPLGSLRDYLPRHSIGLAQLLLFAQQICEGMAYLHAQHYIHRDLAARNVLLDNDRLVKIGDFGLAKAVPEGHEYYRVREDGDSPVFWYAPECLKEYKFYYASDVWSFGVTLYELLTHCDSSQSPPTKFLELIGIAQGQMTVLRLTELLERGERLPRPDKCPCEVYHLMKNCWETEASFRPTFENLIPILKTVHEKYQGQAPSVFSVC

Tyk2 = Tyk2 (Homo sapiens (Human), UniProt P29597); experiment: Biochemical JAK kinase assay (LanthaScreen), Tyk2
Method: as §1, §2, §3

| Structure (SMILES) | Ki (JAK3) | Ki (Tyk2) |
| --- | --- | --- |
| CCc1cc(O)c(F)cc1-c1ccc2c(-c3nc4c([nH]3)CN(C)[C@H](C(=O)N3CCN(CCO)C[C@H]3C)C4)n[nH]c2c1 [Example 6, ((S)-2-(6-(2-ethyl-5-fluoro-4-hydroxyphenyl)-1H-indazol-3-yl)-5-methyl-4,5,6,7-tetrahydro-3H-imidazo[4,5-c]pyridin-6-yl)((R)-4-(2-hydroxyethyl)-2-methyl-piperazin-1-yl)methanone] | 0.25 nM | – |
| CCCN1Cc2[nH]c(-c3n[nH]c4cc(-c5cc(F)c(O)cc5CC)ccc34)nc2C[C@H]1C(=O)N1CCN(CCO)CC1 [Example 7, (S)-(2-(6-(2-ethyl-5-fluoro-4-hydroxyphenyl)-1H-indazol-3-yl)-5-propyl-4,5,6,7-tetrahydro-3H-imidazo[4,5-c]pyridin-6-yl)(4-(2-hydroxyethyl)piperazin-1-yl)methanone] | 0.16 nM | – |
| CCc1cc(O)c(F)cc1-c1ccc2c(-c3nc4c([nH]3)CN(C)C(C(=O)N3CCN(C(C)C)CC3)C4)n[nH]c2c1 (centres unmarked) [Example 1-12] | 0.25 nM | 0.25 nM |
| CCCN1Cc2[nH]c(-c3n[nH]c4cc(-c5cc(F)c(O)cc5CC)ccc34)nc2C[C@@H]1C(=O)N1CC[C@H](N(C)C)C1 [Example 9-21] | 0.25 nM | – |
